Most compounds without a hit are left out; they make up all but 2.1% or so of the library.
UUG fidelity – modulators of start codon recognition fidelity in yeast; AID 602363; hit rate 0.13% among 350,000; activity score, % at 18.7 µM; S. cerevisiae UUG-firefly luciferase reporter, luminescence/redox ratio;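 active = replicate mean at a twofold rise or more, about +100% in these data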;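 note: firefly luciferase made from a UUG start codon reports start codon fidelity; reporter light over untreated wells divided by growth signal over untreated wells; some hits fall short of that in this replicate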
PGC1a acetyl inh – PGC1a acetylation modulation, inhibitor mode; U2OS PGC1a acetylation, AlphaScreen anti-acetyl-lysine; with virally co-expressed GCN5 acetyltransferase; inhibition, % at 15.6 µM; 350,000 tested, 0.17% active; AID 651687;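 active = every replicate shows inhibition of at least 40%; inconclusive = mean inhibition at least 40% but some replicate below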;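 note: 0% = neutral control wells and 100% = positive control wells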
MITF TRPM1 inh – reduces MITF-dependent TRPM1 promoter luciferase signal; SK-MEL-5 TRPM1 promoter luciferase, 24 h; inhibition, % at 12.5 µM; 330,000 tested, 0.83% active; AID 488899;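 active = mean inhibition across replicates of 60% or more, whatever share of single replicates reaches that level; inconclusive = some that reach 60%, reason not given; inactive = mean inhibition across replicates below 60%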
MITF TRPM1 HTS – activators of MITF-driven TRPM1 promoter activity in SK-MEL-5 cells | 300,000 tested, 0.75% active | SK-MEL-5 TRPM1-promoter luciferase, 24 h; % of positive control, neutral wells = 0 | activation, % at 12.5 µM;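 active = mean activation of at least 80% with every replicate also reaching 80%; inconclusive = mean reaches 80% but some replicate falls short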;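 note: 0% = neutral control wells and 100% = parthenolide positive control wells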
Wnt bcat act – activators of Wnt/beta-catenin signaling; Wnt/beta-catenin reporter cell assay, activator, plate reader; activation, % at 9.35 µM; 300,000 tested, 1.2% active; in the data active = activation above about 30%, passing the limit was not always enough; inconclusive = no clear call, values can overlap the other calls;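 note: 0% = neutral control wells and 100% = positive control wells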
miR-122 sensor – inhibitors of miR-122 in Huh7 cells. Huh7 miR-122 Renilla luciferase sensor, 48 h; neutral wells = 0, positive control = 100. activation (reporter increase), % at 12.5 µM. 340,000 tested, 0.3% active. AID 602342;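 active = mean replicate activation score at least 90 and every replicate individually at or above 90; inconclusive = only one of the two criteria met; inactive = neither criterion met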;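 note: higher luciferase means less miR-122 activity so hits act as miR-122 inhibitors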
Starred values were filed as active, the others as inactive; ? = inconclusive; nt = no result given; [ ] = another dose, or the depositor's remark.

Assay codes – A = UUG fidelity; B = PGC1a acetyl inh; C = MITF TRPM1 inh; D = MITF TRPM1 HTS; E = Wnt bcat act; F = miR-122 sensor
COc1ccc(/C=C/c2cc(O)cc(O[C@@H]3O[C@H](CO)[C@@H](O)[C@H](O)[C@H]3O)c2)cc1O
  A: -12	B: 16	C: nt	D: nt	E: 72*	F: 2
COc1ccc(/C=C/c2cc(O)cc(OC3OC(CO)C(O)C(O)C3O)c2)cc1 (stereo unspecified)
  A: 4	B: -4	C: -116	D: 117*	E: 49*	F: -1
O=c1c(-c2ccc(O)cc2)coc2cc(OC3OC(CO)C(O)C(O)C3O)cc(O)c12 (stereo unspecified)
  A: 9	B: 9	C: -25	D: 31	E: ?	F: 2
Cc1cc(O)cc(O[C@H]2OC(CO)[C@H](O)[C@@H](O)[C@H]2O)c1 (stereo partly specified)
  A: -15	B: 2	C: 7	D: -5	E: -1	F: 1
COc1ccc(CN2C[C@H](C)[C@H](OC)CN(C)C(=O)c3cc(NC(=O)c4nc5ccccc5s4)ccc3OC[C@@H]2C)cc1
  A: 2	B: -16	C: nt	D: nt	E: nt	F: nt
C=CCNc1nc(-c2ccc(Cl)cc2)cs1
  A: nt	B: 3	C: -134	D: 134*	E: nt	F: -1
C=CCNc1nc(-c2ccc([N+](=O)[O-])cc2)cs1
  A: nt	B: nt	C: -83	D: 80	E: 18	F: nt
COC(=O)C[C@H]1C[C@@H]2c3cc(NC(=O)c4cccnc4)ccc3O[C@@H]2[C@H](CO)O1
  A: -1	B: -11	C: nt	D: nt	E: nt	F: 0[16.7 µM]
CCC(=O)NC[C@@H]1[C@H](c2ccccc2)[C@@H](CO)N1C(=O)C1CCC1
  A: 4	B: -8	C: nt	D: nt	E: nt	F: 17[16.7 µM]
Cc1ccc(-c2cc(C(=O)NC3=NCCS3)c3ccccc3n2)cc1C
  A: -9	B: -2	C: -39	D: 45	E: 40*	F: -4
CCC(=O)Nc1cc(C(=O)OCC(=O)c2ccc(Cl)cc2Cl)ccc1C
  A: -9	B: 13	C: 0	D: 0	E: nt	F: 32
CCC(=O)Nc1cc(C(=O)OCC(=O)c2ccccc2)ccc1C
  A: nt	B: nt	C: -73	D: 77	E: 35*	F: nt
CCC(=O)Nc1cc(C(=O)OCC(=O)c2ccccc2Cl)ccc1C
  A: -19	B: 27	C: -77	D: nt	E: 35*	F: -2
CCOC(=O)N1CCN(C(=O)c2ccc3c(c2)sc2nc(-c4ccc(OC)cc4)cn23)CC1
  A: -6	B: nt	C: -17	D: 20	E: nt	F: nt
COc1ccc2c(c1)sc1nc(-c3ccccc3)cn12
  A: nt	B: -71	C: 91*	D: -90	E: nt	F: 43
Cc1cccn2c1nc(=S)n2C(=O)c1ccco1
  A: nt	B: nt	C: -51	D: 61	E: 72*	F: nt
O=C(c1ccco1)N1CCN(C(=O)c2ccco2)C1=S
  A: nt	B: nt	C: 6	D: -6	E: -8	F: nt
N#Cc1ccccc1NC(=O)C1SC(=Nc2ccccc2)C(C(=O)Nc2ccc(Cl)cc2)=C1N (stereo unspecified)
  A: -9	B: -5	C: 72*	D: -70	E: -1	F: 8
Cc1ccccc1CS(=O)(=O)c1nnc([C@H](CC(C)C)NC(=O)OC(C)(C)C)o1
  A: -13	B: -74	C: 84*	D: -82	E: -3	F: nt
CC(C)[C@H](NC(=O)OC(C)(C)C)c1nnc(S(=O)(=O)Cc2c(F)cccc2Cl)o1
  A: -13	B: 16	C: 99*	D: -98	E: -3	F: -10
CC(C)CCCCCCCCCCCCC(=O)NCC(=O)NC1C(O)C(O)C(Nc2ncnc3nc[nH]c23)OC1C(O)CO (stereo unspecified)
  A: nt	B: 96*	C: 76*	D: nt	E: nt	F: -8
CC(O)CNc1ncnc2nc[nH]c12 (stereo unspecified)
  A: -13	B: 6	C: -1	D: 8	E: -7	F: -2
Cc1ccc([N+](=O)[O-])cc1N(CC(=O)Nc1ccc(S(=O)(=O)Nc2cccc(C(F)(F)F)c2)cc1)S(C)(=O)=O
  A: 0	B: nt	C: 8	D: -9	E: nt	F: 123*
COc1ccccc1N(CC(=O)Nc1cccc(C(F)(F)F)c1)S(C)(=O)=O
  A: -7	B: 6	C: -6	D: 5	E: nt	F: 3
COc1ccccc1/C=C/C(=O)c1c2c(c(C)[nH]c1=O)CCCC2
  A: -12	B: 14	C: 64*	D: -63	E: -7	F: 36

Following part:
Assay codes – A = UUG fidelity; B = PGC1a acetyl inh; C = MITF TRPM1 inh; D = MITF TRPM1 HTS; E = Wnt bcat act; F = miR-122 sensor
COc1ccccc1/C=C/C(=O)c1ccccc1
  A: nt	B: nt	C: -23	D: 19	E: 19	F: nt
O=C(O)C[C@@H]1C=C[C@@H](NC(=O)Nc2ccccc2)[C@H](CO)O1
  A: -10	B: -5	C: nt	D: nt	E: nt	F: nt
COc1ccc(-c2cc3c(=O)n(CC(=O)NCCCN4CCN(Cc5ccccc5)CC4)ncn3n2)cc1
  A: -72	B: 4	C: -17	D: 18	E: 10	F: -6
COc1ccc(-c2cc3c(=O)n(CC(=O)NCCCN4CCC(Cc5ccccc5)CC4)ncn3n2)cc1
  A: -56	B: -2	C: 71*	D: -68	E: 11	F: -7
CC(C)(C)c1cc(C(c2cccnc2)N2CCN(CCO)CC2)cc(C(C)(C)C)c1O (stereo unspecified)
  A: -49	B: -49	C: 79*	D: -79	E: 1	F: 3
CC(C)(C)n1nnnc1C(c1cccnc1)N1CCN(c2cccc(C(F)(F)F)c2)CC1 (stereo unspecified)
  A: -5	B: -5	C: -5	D: 4	E: 1	F: -4
Cc1cc(C)c2nc(C)cc(N/N=C/c3ccc(O)cc3)c2c1
  A: -16	B: nt	C: 86*	D: nt	E: -7	F: nt
CC(=O)CCSc1ncnc2sc(-c3ccccc3)cc12
  A: -13	B: nt	C: -76	D: 69	E: 43*	F: 1
C[C@H]1CN([C@@H](C)CO)C(=O)c2cc(NS(=O)(=O)c3cccs3)ccc2O[C@H]1CN(C)S(=O)(=O)c1ccc(Cl)cc1
  A: 2	B: 16	C: nt	D: nt	E: nt	F: 5[16.7 µM]
CCOC(=O)C1(Cc2cccc(OC)c2)CCCN(C(=O)c2ccccc2C)C1 (stereo unspecified)
  A: 14	B: -17	C: -69	D: 72	E: 35*	F: 2
CCOC(=O)C1(Cc2ccccc2)CCCN(C(=O)c2cnn(CC)c2)C1 (stereo unspecified)
  A: 2	B: -16	C: -87	D: 91*	E: 24	F: -3
CCOC(=O)C1(Cc2cccc(OC)c2)CCCN(C(=O)c2cc(C)on2)C1 (stereo unspecified)
  A: -9	B: nt	C: -28	D: 31	E: 12	F: nt
CC1(C(=O)Nc2cccc(C#N)c2)CCN1C(=O)CCc1ccccc1 (stereo unspecified)
  A: -19	B: 44*	C: nt	D: nt	E: 1	F: -2
CC(=O)c1ccc(NS(=O)(=O)c2ccc3c(c2)N(C)CCO3)cc1
  A: -17	B: 12	C: 7	D: -6	E: -2	F: 134*
CC(=O)c1ccc(NS(=O)(=O)c2cc3c(cc2C)N(C)CCO3)cc1
  A: 5	B: -5	C: 11	D: -3	E: 1	F: 71
Cc1ccc(S(=O)(=O)N(C)C[C@H]2Oc3ccc(NC(=O)NC4CCCCC4)cc3CC(=O)N([C@H](C)CO)C[C@@H]2C)cc1
  A: 14	B: 1	C: nt	D: nt	E: nt	F: -2[16.7 µM]
COc1cc(C2Nc3ccccc3C(=O)N2c2ccc(Cl)cc2)c(Cl)cc1OCC(=O)O (stereo unspecified)
  A: -12	B: nt	C: -67	D: 71	E: 48*	F: -5
CC(C)N=c1cc2n(-c3ccc(Cl)cc3)c3ccccc3nc-2cc1Nc1ccc(Cl)cc1
  A: -9	B: 7	C: 74*	D: -74	E: -13	F: -8
Cn1c(CNc2ccc(Cl)cc2)nc2ccccc21
  A: -28	B: 1	C: -20	D: nt	E: 25	F: 13
COc1ccc(CN(C)C[C@@H]2OCCCC[C@@H](C)Oc3ccc(NS(=O)(=O)c4c(C)noc4C)cc3C(=O)N([C@@H](C)CO)C[C@@H]2C)cc1
  A: nt	B: 2	C: nt	D: nt	E: nt	F: nt
